The Ki is a dissociation constant, usually derived from enzyme kinetics or from competition with a known ligand. The low end stands for a stronger hold on the target, the high end for a looser hold on the target. In general, Kd refers to the concentration at which binding is half-saturated.

Protein sequences, listed by entry. Tags and fused reporters are not part of them.
UniProt P29371, whole entry H316W: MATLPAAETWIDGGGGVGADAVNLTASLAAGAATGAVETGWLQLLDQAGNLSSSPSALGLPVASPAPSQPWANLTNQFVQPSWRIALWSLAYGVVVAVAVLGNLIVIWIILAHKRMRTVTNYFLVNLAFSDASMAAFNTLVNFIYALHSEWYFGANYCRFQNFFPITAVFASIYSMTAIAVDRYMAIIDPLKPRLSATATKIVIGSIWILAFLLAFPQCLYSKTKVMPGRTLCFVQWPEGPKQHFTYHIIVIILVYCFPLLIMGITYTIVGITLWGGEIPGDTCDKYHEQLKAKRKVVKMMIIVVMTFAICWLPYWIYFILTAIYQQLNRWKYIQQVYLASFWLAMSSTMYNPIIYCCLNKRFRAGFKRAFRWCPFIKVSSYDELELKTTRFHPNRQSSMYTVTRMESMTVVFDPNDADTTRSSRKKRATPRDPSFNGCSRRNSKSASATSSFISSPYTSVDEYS
UniProt P29371, whole entry H316F: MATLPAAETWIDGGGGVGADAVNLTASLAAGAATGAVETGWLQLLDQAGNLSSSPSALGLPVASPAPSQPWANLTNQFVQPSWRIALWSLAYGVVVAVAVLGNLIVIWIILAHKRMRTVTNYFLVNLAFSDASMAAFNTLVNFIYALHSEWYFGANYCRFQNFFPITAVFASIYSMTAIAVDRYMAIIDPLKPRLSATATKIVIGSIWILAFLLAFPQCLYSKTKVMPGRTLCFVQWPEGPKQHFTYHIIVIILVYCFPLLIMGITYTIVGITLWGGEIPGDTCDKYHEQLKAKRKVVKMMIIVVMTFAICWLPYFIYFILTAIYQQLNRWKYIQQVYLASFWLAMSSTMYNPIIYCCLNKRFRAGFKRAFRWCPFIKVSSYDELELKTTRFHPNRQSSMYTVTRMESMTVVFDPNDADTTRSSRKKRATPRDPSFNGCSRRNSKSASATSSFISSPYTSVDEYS
UniProt P29371, whole entry Y247W: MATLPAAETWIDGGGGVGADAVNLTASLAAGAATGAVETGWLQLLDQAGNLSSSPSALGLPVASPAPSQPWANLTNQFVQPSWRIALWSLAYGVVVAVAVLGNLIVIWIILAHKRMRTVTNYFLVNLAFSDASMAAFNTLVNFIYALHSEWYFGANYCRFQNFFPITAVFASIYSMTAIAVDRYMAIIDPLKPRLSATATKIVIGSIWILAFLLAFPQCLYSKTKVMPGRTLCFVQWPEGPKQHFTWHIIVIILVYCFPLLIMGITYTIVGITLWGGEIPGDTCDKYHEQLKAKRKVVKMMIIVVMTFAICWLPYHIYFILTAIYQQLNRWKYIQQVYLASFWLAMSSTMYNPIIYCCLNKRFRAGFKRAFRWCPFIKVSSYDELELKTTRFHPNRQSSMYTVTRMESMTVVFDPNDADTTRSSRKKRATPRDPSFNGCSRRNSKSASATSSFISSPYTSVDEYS
UniProt P29371, whole entry Y315F: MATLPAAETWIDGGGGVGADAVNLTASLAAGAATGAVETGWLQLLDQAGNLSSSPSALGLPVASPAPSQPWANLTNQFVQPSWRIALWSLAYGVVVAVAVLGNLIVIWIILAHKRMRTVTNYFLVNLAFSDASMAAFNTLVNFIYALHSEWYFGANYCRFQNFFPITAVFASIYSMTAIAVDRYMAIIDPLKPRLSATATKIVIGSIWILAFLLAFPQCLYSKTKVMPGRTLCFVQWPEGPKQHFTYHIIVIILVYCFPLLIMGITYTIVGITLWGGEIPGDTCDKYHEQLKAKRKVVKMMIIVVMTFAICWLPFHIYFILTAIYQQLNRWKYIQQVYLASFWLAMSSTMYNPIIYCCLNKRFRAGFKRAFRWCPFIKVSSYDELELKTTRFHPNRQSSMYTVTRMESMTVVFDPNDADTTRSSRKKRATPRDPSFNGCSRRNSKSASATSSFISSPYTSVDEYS
UniProt P29371, whole entry Y247F: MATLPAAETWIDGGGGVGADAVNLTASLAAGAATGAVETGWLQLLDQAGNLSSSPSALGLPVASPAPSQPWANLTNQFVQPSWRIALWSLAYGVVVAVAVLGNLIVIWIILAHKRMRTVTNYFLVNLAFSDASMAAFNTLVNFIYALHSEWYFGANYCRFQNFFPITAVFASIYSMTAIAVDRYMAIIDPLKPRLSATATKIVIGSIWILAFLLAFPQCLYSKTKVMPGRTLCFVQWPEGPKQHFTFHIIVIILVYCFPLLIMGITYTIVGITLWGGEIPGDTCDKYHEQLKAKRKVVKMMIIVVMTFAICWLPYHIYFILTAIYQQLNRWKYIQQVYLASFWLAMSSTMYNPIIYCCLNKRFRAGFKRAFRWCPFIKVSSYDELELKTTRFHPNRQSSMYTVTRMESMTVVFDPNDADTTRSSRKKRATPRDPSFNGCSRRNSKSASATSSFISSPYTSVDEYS
UniProt P29371, whole entry: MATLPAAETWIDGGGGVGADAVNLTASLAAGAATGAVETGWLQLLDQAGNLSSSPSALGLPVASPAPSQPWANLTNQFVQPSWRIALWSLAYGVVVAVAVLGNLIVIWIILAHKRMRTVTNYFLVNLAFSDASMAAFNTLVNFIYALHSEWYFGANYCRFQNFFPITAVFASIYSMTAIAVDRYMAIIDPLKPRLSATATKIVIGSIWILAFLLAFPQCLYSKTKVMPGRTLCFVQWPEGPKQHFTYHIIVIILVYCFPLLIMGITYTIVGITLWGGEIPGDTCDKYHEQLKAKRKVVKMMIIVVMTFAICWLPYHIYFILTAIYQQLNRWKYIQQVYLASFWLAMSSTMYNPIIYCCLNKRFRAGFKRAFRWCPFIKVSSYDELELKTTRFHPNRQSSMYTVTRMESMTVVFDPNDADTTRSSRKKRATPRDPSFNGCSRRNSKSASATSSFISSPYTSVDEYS

Holding throughout (assay type): cell-based
The target in assay [1] is T1, Neuromedin-K receptor (Homo sapiens, UniProt P29371, H316W). Kind of assay: Displacement of radioligand [3H]osanetant at human NK3 H316W mutant expressed in HEK293 cells.
In assay [2] the target is T2, Neuromedin-K receptor (Homo sapiens, UniProt P29371, H316F). The assay can be described thus: Displacement of radioligand [3H]osanetant at human NK3 H316F mutant expressed in HEK293 cells.
Assay [3] addresses T3, Neuromedin-K receptor (Homo sapiens, UniProt P29371, Y247W). Kind of assay: Displacement of radioligand [3H]osanetant at human NK3 Y247W mutant expressed in HEK293 cells.
Assay [4] addresses T4, Neuromedin-K receptor (Homo sapiens, UniProt P29371, Y315F). The assay can be described thus: Displacement of radioligand [3H]osanetant at human NK3 Y315F6.51 mutant expressed in HEK293 cells.
For assay [5], the target named is T5, Neuromedin-K receptor (Homo sapiens, UniProt P29371, Y247F). The assay can be described thus: Competitive inhibition at human NK3 Y247F5.38 mutant expressed in HEK293 cells assessed as decrease in [MePhe7]NKB-induced [3H]IP accumulation after 20 mins. The settings on record: read-out: pA2 (converted).
Assay [6] addresses T1, Neuromedin-K receptor. The assay can be described thus: Competitive inhibition at human NK3 H316W6.52 mutant expressed in HEK293 cells assessed as decrease in [MePhe7]NKB-induced [3H]IP accumulation after 20 mins. The settings on record: read-out: pA2 (converted).
For assay [7], the target named is T4, Neuromedin-K receptor. The assay can be described thus: Competitive inhibition at human NK3 Y315F6.51 mutant expressed in HEK293 cells assessed as decrease in [MePhe7]NKB-induced [3H]IP accumulation after 20 mins. The settings on record: read-out: pA2 (converted). The method, boiled down:
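HEK293 cells transiently expressing human NK3 WT or mutant, labeled with myo-[³H]inositol in LiCl buffer. Antagonist preincubated 20 min at 37 °C, then [MePhe⁷]NKB (0.01 nM–1 μM) added for 45 min at 37 °C. [³H]IP read by SPA beads. Schild analysis of EC50 shift and Emax depression across increasing antagonist concentrations gives pA2, slope and mode of antagonism.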

Assay [8] has as its target T1, Neuromedin-K receptor. The assay can be described thus: Binding affinity to human NK3 H316W mutant expressed in HEK293 cells assessed as [3H]IP accumulation after 45 mins.
For assay [9], the target named is T2, Neuromedin-K receptor. The assay can be described thus: Binding affinity to human NK3 H316F mutant expressed in HEK293 cells assessed as [3H]IP accumulation after 45 mins.
For assay [10], the target named is T3, Neuromedin-K receptor. Kind of assay: Binding affinity to human NK3 Y247W mutant expressed in HEK293 cells assessed as [3H]IP accumulation after 45 mins.
In assay [11] the target is T5, Neuromedin-K receptor. The assay can be described thus: Binding affinity to human NK3 Y247F mutant expressed in HEK293 cells assessed as [3H]IP accumulation after 45 mins.
The target in assay [12] is Neuromedin-K receptor (Homo sapiens, UniProt P29371). The assay can be described thus: Binding affinity to wild type human NK3 receptor expressed in HEK293 cells assessed as [3H]IP accumulation after 45 mins.

As for `CC(=O)N(C)C1(c2ccccc2)CCN(CCC[C@]2(c3ccc(Cl)c(Cl)c3)CCCN(C(=O)c3ccccc3)C2)CC1` [OSANETANT], the Ki at Neuromedin-K receptor [1] is 4.8 nM; on Neuromedin-K receptor [2], 0.4 nM; at Neuromedin-K receptor [3] it was 2.1 nM; on Neuromedin-K receptor [4], 10.8 nM. The Kb is 5.89 nM on Neuromedin-K receptor [5], 17 nM on Neuromedin-K receptor [6] and 29.5 nM on Neuromedin-K receptor [7].
Consider `[3H]c1cccc(C2(N(C)C(C)=O)CCN(CCC[C@]3(c4ccc(Cl)c(Cl)c4)CCCN(C(=O)c4ccccc4)C3)CC2)c1`, for which the Kd on Neuromedin-K receptor [8] was 2.2 nM; on Neuromedin-K receptor [9], 0.08 nM; on Neuromedin-K receptor [10] it was 1 nM; on Neuromedin-K receptor [11], 0.7 nM; at Neuromedin-K receptor [12], 0.2 nM.

Values taken from ChEMBL document CHEMBL2203099, “Identification of a crucial amino acid in the helix position 6.51 of human tachykinin neurokinin 1 and 3 receptors contributing to the insurmountable mode of antagonism by dual NK₁/NK₃ antagonists” (J Med Chem, 2012).
